# From ChEMBL document CHEMBL6121046, “Discovery of Novel Hydrazide-Based HDAC3 Inhibitors as Epigenetic Immunomodulators for Cancer Immunotherapy” (J Med Chem, 2025)
# Species on record: Homo sapiens
# Test: Selectivity index, ratio of IC50 for recombinant human HDAC1 to IC50 for recombinant human HDAC3
row,Selectivity Index,Structure (SMILES)
1,33,CCCNNC(=O)c1ccc(CNC(=O)c2cnc(-c3cccc4ccccc34)[nH]2)cc1
2,33,CCCNNC(=O)c1ccc(CNC(=O)c2cnc(-c3ccccc3)[nH]2)cc1
3,24,CCCNNC(=O)c1ccc(CNC(=O)c2cnc(-c3ccc4ccccc4c3)[nH]2)cc1

row,Structure (SMILES),Selectivity Index
1,CCCNNC(=O)c1ccc(CNC(=O)c2cnc(-c3ccc4occc4c3)[nH]2)cc1,75
